Target: T1, TMPRSS2 (Homo sapiens, UniProt O15393)
T1 construct: expressed in transfected cells
Experiment: cell-based
Details: overexpressing cell system; read-out: IC50 against TMPRSS2 (converted)

Sequences of proteins named here, by UniProt entry; tags and fusion partners are left off.
UniProt O15393, whole entry: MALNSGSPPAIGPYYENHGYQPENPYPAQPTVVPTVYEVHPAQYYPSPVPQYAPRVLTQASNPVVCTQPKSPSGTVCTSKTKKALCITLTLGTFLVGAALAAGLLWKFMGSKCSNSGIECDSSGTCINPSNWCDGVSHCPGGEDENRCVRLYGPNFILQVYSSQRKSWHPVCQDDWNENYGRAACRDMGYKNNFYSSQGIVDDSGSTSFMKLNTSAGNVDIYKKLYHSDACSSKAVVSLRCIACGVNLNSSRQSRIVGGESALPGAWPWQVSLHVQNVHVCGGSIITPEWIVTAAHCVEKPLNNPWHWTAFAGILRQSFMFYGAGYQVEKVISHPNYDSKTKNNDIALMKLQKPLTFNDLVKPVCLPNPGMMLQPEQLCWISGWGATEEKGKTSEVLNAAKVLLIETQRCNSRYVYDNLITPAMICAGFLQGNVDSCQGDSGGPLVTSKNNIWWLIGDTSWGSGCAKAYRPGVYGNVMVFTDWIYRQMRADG

`CCCC[C@H](NC(=O)[C@H](CC(C)C)NC(=O)[C@H](Cc1ccccc1)NC(=O)[C@@H](NC(=O)[C@H](Cc1ccccc1)NC(=O)[C@@H]1CCCN1C(=O)[C@H](CCCCN)NC(=O)[C@H](CC(N)=O)NC(=O)[C@H](Cc1ccccc1)NC(=O)[C@H](CCCCN)NC(=O)[C@@H](NC(C)=O)C(C)C)C(C)C)C(=O)N[C@H](C(=O)N[C@@H](CCC(=O)O)C(=O)N[C@@H](CCC(N)=O)C(=O)N[C@@H](CC(N)=O)C(=O)N[C@H](C(=O)N[C@@H](CCCCN)C(N)=O)[C@@H](C)O)[C@@H](C)CC` [SP163M, Ac-VKFNKPFVFL[Nle]IEQNTK-NH2] showed an IC50 of 534 nM.
